# Experimental data: patent publication US10077463B2, “Optical selection of cells” (President and Fellows of Harvard College, priority 2015, dated 2018)
# Test system: MDCK cells
# Test: Photostick of MDCK cells (violet light crosslinking, ACCUTASE development)
# Type: cell-based, Canine
Structure (SMILES),"Retention of illuminated cells after ACCUTASE (in words) (4 μM, 407 nm light, ACCUTASE 3 min 37° C.)","Illumination light dose yielding high photosticking efficiencies (4 μM, 407 nm light, ACCUTASE 37° C. 3 min)","Concentration yielding good Photostick efficiency (0.5-20 μM tested, 407 nm light 825 J/cm^2, ACCUTASE 37° C. 3 min)"
[N-]=[N+]=Nc1ccc(F)c([N+](=O)[O-])c1,remaining cells clearly followed,,
CC[N+]1=C(/C=C/C=C2/N(CCCCCC(=O)NCCNC(=O)CCSSCCNC(=O)C(CCCCNC(=O)CCCCC3SCC4NC(=O)NC43)NC(=O)c3ccc(N=[N+]=N)cc3)c3ccc(S(=O)(=O)O)cc3C2(C)C)C(C)(C)c2cc(S(=O)(=O)O)ccc21 (stereo not drawn) [Cy3-SBED],,above 550 J/cm^2,above 4 μM
